According to article PMC4324837 (Antiviral research, 2014):

What was measured:
CMV AD169IE2-YFP = experiment: in vitro; assay type: cell-based, Human cytomegalovirus; conditions: MRC5 cells
[1] = CC50 / cell viability by NucGreen staining, MRC5 cells; assay type: cell-based; conditions: human

## COc1ccc(C[C@H]2NC[C@H](O)[C@H]2OC(C)=O)cc1 [Anisomycin]
CMV AD169IE2-YFP
  Selective Ratio (CC50/EC50): >29
CMV AD169IE2-YFP; human, Selective Ratio (CC50/EC50)
  selectivity ratio: ~30
[1]
  CC50 at 19 h: > 5 µM
